Values of other authors, collected in patent publication US7235267B1, “Brain cell or nerve cell-protecting agents comprising medicinal ginseng” (priority 1999, dated 2007).

System: hippocampal CA1 pyramidal neurons
Conditions: intracerebroventricular administration; cited from earlier work

B1: interleukin 3: peptide increasing Bcl-xL protein in hippocampal CA1 by intracerebroventricular administration (protein, UniProt P08700 20-152, looked up)
Interleukin-3: APMTQTTPLKTSWVNCSNMIDEIITHLKQPPLPLLDFNNLNGEDQDILMENNLRRPNLEAFNRAVKSLQNASAIESILKNLLPCLPLATAAPTRHPIHIKDGDWNEFRRKLTFYLKTLENAQAQQTTLSLAIF
expression of Bcl-xL protein in the brain: can increase
